ChEMBL document CHEMBL3430320, “Prediction of Thorough QT study results using action potential simulations based on ion channel screens” (J Pharmacol Toxicol Methods, 2014)

Key:
[1] = target: T1, Voltage-dependent L-type calcium channel subunit alpha-1C (Homo sapiens, UniProt Q13936); experiment: Inhibition of long-lasting type calcium current (hICa) in Chinese Hamster Ovary (CHO) cells expressing hCav1.2 measured using IonWorks Quattro automated patch clamp platform
[2] = target: T1, Voltage-dependent L-type calcium channel subunit alpha-1C; experiment: Inhibition of long-lasting type calcium current (ICaL) in HEK293 cells (alpha1C/beta2a/alpha2delta1) cells measured using IonWorks Barracuda automated patch clamp platform

Structure (SMILES): Cc1nnc(C(=O)NC(C)(C)c2nc(C(=O)NCc3ccc(F)cc3)c(O)c(=O)n2C)o1
- pIC50 [1]: Inactive
- pIC50 [2]: Inactive
